Measured values taken from patent publication US20160274108A1, “DIAGNOSTIC METHODS FOR PAR4 ANTAGONIST THERAPY” (BRISTOL-MYERS SQUIBB COMPANY, priority 2013, published 2016).

These compounds were tested against T1, washed platelet suspension (Homo sapiens, UniProt Q96RI0) (assay: PAR4 agonist peptide induced platelet aggregation assay (96-well microplate)). Conditions: read-out: ED50 (μM) [Platelet Aggregation]; washed platelets, 37° C., read at 405 nm up to 15 minutes.
T1 sequence (Q96RI0 48-385): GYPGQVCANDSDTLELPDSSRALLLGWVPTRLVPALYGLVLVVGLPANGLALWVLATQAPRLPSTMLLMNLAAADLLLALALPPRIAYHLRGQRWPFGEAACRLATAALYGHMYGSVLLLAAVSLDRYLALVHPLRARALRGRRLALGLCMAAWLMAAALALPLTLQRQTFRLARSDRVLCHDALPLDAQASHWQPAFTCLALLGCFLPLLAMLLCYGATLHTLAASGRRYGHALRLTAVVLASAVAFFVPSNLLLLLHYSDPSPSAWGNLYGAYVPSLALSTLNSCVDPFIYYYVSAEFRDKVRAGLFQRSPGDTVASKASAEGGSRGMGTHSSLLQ
Assay type: cell-based
Protocol: The ability of the peptides comprising Formulas (I) to (IV) to induce platelet aggregation was tested in a 96-well microplate aggregation assay format. Briefly, a washed platelet suspension with varying concentrations of agonist compounds was assayed. Aggregation was initiated by the addition of a titered test agonist peptide. The plate was then placed into a 37° C. Molecular Devices SPECTRAMAX® Plus Plate Reader (Sunnyvale, Calif.). […] The plate also included an untreated control sample that served as ODmax, while buffer containing no platelets was the ODmin. Platelet aggregation was determined by subtracting the ODmax from the ODmin for the 100% aggregation value. In experimental samples, the observed transmission was subtracted from the minimum value and then compared to the 100% aggregation value to determine the percentage aggregation. ED50 values were determined using Excel Fit software.
CC(C)C[C@H](NC(=O)[C@H](Cc1c[nH]c2ccccc12)NC(=O)CNC(=O)[C@@H]1CCCN1C(=O)[C@H](Cc1ccc(F)cc1)NC(=O)[C@H](C)N)C(=O)N[C@H](C(N)=O)C(C)C [compound 6] showed an EC50 of 1.1 µM. With CC(C)C[C@H](NC(=O)[C@H](Cc1c(F)c(F)c(F)c(F)c1F)NC(=O)CNC(=O)[C@@H]1CCCN1C(=O)[C@H](Cc1ccc(F)cc1)NC(=O)[C@H](C)N)C(=O)N[C@H](C(N)=O)C(C)C [compound 24] the EC50 was 0.69 µM. For CC(C)C[C@H](NC(=O)[C@H](Cc1cccc2ccccc12)NC(=O)CNC(=O)[C@@H]1CCCN1C(=O)[C@H](Cc1ccc(F)cc1)NC(=O)[C@H](C)N)C(=O)N[C@H](C(N)=O)C(C)C [compound 31], the EC50 was 0.63 µM. For CC(C)C[C@H](NC(=O)[C@H](Cc1ccc2ccccc2c1)NC(=O)CNC(=O)[C@@H]1CCCN1C(=O)[C@H](Cc1ccc(F)cc1)NC(=O)[C@H](C)N)C(=O)N[C@H](C(N)=O)C(C)C [compound 32], the EC50 was 0.61 µM.
